According to US7459479B2, “Benzylated PDE4 inhibitors” (Biolipox AB, priority 2000, dated 2008):

Molecular target: T1, HARBS site of PDE4
T1 construct: HARBS IC50; other: mouse brain membranes, [3H]-ROLIPRAM displacement; other: mouse brain; other: relative to ROLIPRAM (25, 26) or
Experiment: Displacement of [3H]-ROLIPRAM from the high affinity binding site (HARBS) in mouse brain membranes
Conditions: [3H]-ROLIPRAM displacement
Description: In order to perform this assay, female CD1 mice are sacrificed via the intraperitoneal injection of 100 μL ethanol, and the brain tissue is homogenized in 5 mL of ice-cold Tris-HCl, pH 8.00 supplemented with 1.2 mM MgCl2, 1 mM benzamidine (Sigma; Catalogue No. B 6506) and 0.1 mM PMSF (Sigma; Catalogue No. P 7626). The suspension is centrifuged twice at 30,000×G at 4° C. and then the supernatant discarded. The pellet is resuspended in buffer, and adjusted to a protein concentration of 0.5 mg/mL. Compounds to be tested are dissolved in DMSO and pipetted in triplicate into a 96 well microplate at concentrations ranging from 1 to 30,000 nM. […] The plate is incubated at 4° C. for 1 hour. Contents of the plate are aspirated through a Whatman GF/C filterplate, and rinsed with 4×200 μL ice-cold buffer. The plate is dried overnight, and then 30 μL of Microscint 20 (Packard; Catalogue No. 6013621) is added to each well, and plate is read in the scintillation counter with a sampling time of 2 minutes/well. […] Triplicate determinations should be performed at each concentration.

IC50: 601 nM
Structure (SMILES): COc1cc(CC2C(=O)NCC2c2ccc(OC)c(OC3CCCC3)c2)ccc1O (stereo not shown) [Compound 26]
